In patent EP4744648A1, “LIPOPEPTIDE-CONTAINING FAT-DISSOLVING PRODUCT, AND PREPARATION METHOD THEREFOR AND USE THEREOF” (Bloomage Biotechnology Corporation Limited, priority 2023, dated 2024):

Test system: Female Kunming mice
Test: Animal experiment comparing surfactin-C14 and surfactin-C15: subcutaneous injection in right inguinal region, four administrations
Settings: 200 µL s.c.

surfactin-C15 [HXRZ-C]
Incidence of local adverse reactions, First administration (1 mg/mL (low-dose)): 0.00%
Incidence of local adverse reactions, Fourth administration (1 mg/mL (low-dose)): 0.00%
Incidence of local adverse reactions, Second administration (1 mg/mL (low-dose)): 14.29%
Incidence of local adverse reactions, Third administration (1 mg/mL (low-dose)): 0.00%
Incidence of local adverse reactions, First administration (5 mg/mL (medium-dose)): 14.29%
Incidence of local adverse reactions, Fourth administration (5 mg/mL (medium-dose)): 20.00%
Incidence of local adverse reactions, Second administration (5 mg/mL (medium-dose)): 28.57%
Incidence of local adverse reactions, Third administration (5 mg/mL (medium-dose)): 0.00%
Incidence of local adverse reactions, Fourth administration (10 mg/mL): 40.00%
Incidence of local adverse reactions, Second administration (10 mg/mL): 28.57%
Incidence of local adverse reactions, Third administration (10 mg/mL): 20.00%
Incidence of local adverse reactions, First administration (10 mg/mL, percentage of mice with abnormalities at the administration site): 42.86%
